Data: article PMC12610713, “Inhibition Profiling of Rhodiola crenulata on Lactate Dehydrogenase Isoenzymes” (Molecules, 2025)

Chains of the proteins cited; added tags and fusions are not shown.
UniProt P07195, whole entry: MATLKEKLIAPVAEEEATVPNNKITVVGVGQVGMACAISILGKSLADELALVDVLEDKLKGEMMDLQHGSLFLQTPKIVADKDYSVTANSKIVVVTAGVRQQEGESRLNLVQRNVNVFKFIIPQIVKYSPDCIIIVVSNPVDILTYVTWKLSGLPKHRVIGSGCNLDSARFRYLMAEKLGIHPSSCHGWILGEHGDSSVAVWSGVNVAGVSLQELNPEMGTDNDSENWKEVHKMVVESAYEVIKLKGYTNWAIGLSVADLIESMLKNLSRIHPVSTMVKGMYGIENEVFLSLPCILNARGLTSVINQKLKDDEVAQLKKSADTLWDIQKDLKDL

Target: T1, recombinant LDHB (Homo sapiens, UniProt P07195)
T1 construct: His-tag; made in house; host or cells: E. coli BL21(DE3)
Assay: LDHB enzyme activity inhibition assay (NADH oxidation, 340 nm)
Format: biochemical
Method: The Z’ factor (Z’ = 1 − [3 × (σₚ + σₙ)]/|μₚ − μₙ|) was used to evaluate the robustness of the screening platform, where σ represents the standard deviation, μ represents the mean value, p denotes enzyme activity, and n denotes the background signal. […] (2) The enzyme-inhibitor mixture was pre-incubated for 10 min at room temperature. […] (4) At 30 °C, the enzymatic reaction was monitored at 340 nm for 20 min.
For the enzyme activity assay, the concentrations of the R. crenulata extract were 20 µg/mL, while the 19 isolated components was assayed at 10 µM and 40 µM.

## Cc1cc2c(C(C)C)c(O)c(O)c(C=O)c2c(O)c1-c1c(C)cc2c(C(C)C)c(O)c(O)c(C=O)c2c1O [gossypol, reference compound]
  IC50: 270 ± 40 nM
